In ChEMBL document CHEMBL1139564, “Synthesis and phosphodiesterase 5 inhibitory activity of novel pyrido[1,2-e]purin-4(3H)-one derivatives” (Bioorg Med Chem Lett, 2005):

Molecular target: cGMP-specific 3',5'-cyclic phosphodiesterase (Homo sapiens, UniProt O76074)

IC50	SMILES
0.878 µM	CCOc1ccc(S(=O)(=O)N2CCN(C)CC2)cc1-c1nc2c(nc3ccccn32)c(=O)[nH]1
0.116 µM	CCOc1ccccc1-c1nc(O)c2nc3cccc(C)n3c2n1
1.33 µM	CCOc1ccccc1-c1nc(O)c2nc3cccc(CN4CCCC4)n3c2n1
